Data from PMC7669678 (DNA repair, 2020).

Target: T1, GST-C17orf53 (human, UniProt Q8N3J3 1-647)
T1 sequence (looked up): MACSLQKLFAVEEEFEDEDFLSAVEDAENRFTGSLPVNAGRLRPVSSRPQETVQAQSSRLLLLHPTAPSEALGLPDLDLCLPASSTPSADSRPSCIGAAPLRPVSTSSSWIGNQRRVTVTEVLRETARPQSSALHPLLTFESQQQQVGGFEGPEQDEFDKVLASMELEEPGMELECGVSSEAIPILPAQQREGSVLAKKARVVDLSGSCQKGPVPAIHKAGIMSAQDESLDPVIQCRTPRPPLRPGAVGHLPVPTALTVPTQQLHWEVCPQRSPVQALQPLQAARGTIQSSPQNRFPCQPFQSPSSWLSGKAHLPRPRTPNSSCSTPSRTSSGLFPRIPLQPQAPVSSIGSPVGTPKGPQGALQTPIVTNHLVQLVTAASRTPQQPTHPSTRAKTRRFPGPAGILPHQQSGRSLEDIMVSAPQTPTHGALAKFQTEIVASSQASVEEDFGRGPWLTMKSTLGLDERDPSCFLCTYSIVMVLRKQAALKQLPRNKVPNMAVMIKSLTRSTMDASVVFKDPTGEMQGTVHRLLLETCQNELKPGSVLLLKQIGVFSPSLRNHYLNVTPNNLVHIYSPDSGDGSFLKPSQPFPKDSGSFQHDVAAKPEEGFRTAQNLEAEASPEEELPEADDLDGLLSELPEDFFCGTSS
Assay: pull-down

- binding result: binds
B1: MBP-tagged RPA2 (natural protein, UniProt P15927 1-270, looked up)
chain: MWNSGFESYGSSSYGGAGGYTQSPGGFGSPAPSQAEKKSRARAQHIVPCTISQLLSATLVDEVFRIGNVEISQVTIVGIIRHAEKAPTNIVYKIDDMTAAPMDVRQWVDTDDTSSENTVVPPETYVKVAGHLRSFQNKKSLVAFKIMPLEDMNEFTTHILEVINAHMVLSKANSQPSAGRAPISNPGMSEAGNFGGNSFMPANGLTVAQNQVLNLIKACPRPEGLNFQDLKNQLKHMSVSSIKQAVDFLSNEGHIYSTVDDDHFKSTDAE
